Source: patent publication US9227973B2, “Pyridine CGRP receptor antagonists” (Merck Sharp & Dohme Corp., priority 2012, dated 2016)

By UniProt entry, the sequences of proteins in these tests, tags left out. Residues count along the entry.
UniProt O60894, 27-148: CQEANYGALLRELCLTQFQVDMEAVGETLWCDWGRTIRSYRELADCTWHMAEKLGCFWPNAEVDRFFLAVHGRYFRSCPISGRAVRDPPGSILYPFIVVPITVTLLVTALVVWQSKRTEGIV
UniProt Q16602, 23-461: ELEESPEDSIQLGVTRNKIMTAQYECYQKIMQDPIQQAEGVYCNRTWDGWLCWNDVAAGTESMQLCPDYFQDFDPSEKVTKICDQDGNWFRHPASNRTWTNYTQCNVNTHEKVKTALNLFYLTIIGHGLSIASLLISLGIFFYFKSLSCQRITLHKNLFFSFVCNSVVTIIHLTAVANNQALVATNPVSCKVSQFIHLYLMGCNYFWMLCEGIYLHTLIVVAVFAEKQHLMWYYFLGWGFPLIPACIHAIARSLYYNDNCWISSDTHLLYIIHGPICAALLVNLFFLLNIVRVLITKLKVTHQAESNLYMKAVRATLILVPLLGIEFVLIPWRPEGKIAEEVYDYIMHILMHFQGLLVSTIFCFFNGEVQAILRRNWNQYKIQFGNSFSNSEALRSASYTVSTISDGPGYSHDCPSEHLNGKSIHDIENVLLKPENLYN

Molecular target: recombinant human CL receptor/RAMP1 (CGRP receptor) (Homo sapiens (Human), UniProt O60894+Q16602)
Test: Recombinant receptor functional assay (Assay C), cAMP HTRF
Type: cell-based
Conditions: Assay C: HEK 293 cells, 3,500 cells/well, human α-CGRP 1 nM, cAMP inflection point
Method: RECOMBINANT RECEPTOR: Human CL receptor (Genbank accession number L76380) was subcloned into the expression vector pIREShyg2 (BD Biosciences Clontech) as a 5′NheI and 3′ PmeI fragment. Human RAMP1 (Genbank accession number AJ001014) was subcloned into the expression vector pIRESpuro2 (BD Biosciences Clontech) as a 5′NheI and 3′NotI fragment. HEK 293 cells (human embryonic kidney cells; ATCC #CRL-1573) were cultured in DMEM with 4.5 g/L glucose, 1 mM sodium pyruvate and 2 mM glutamine supplemented with 10% fetal bovine serum (FBS), 100 units/mL penicillin and […] streptomycin, and maintained at 37° C. and 95% humidity. Cells were subcultured by treatment with 0.25% trypsin with 0.1% EDTA in HBSS. Stable cell line generation was accomplished by co-transfecting 10 μg of DNA with 30 μg Lipofectamine 2000 (Invitrogen) in 75 cm^2 flasks. CL receptor and RAMP1 expression constructs were co-transfected in equal amounts. […]
RECOMBINANT RECEPTOR FUNCTIONAL ASSAY (Assay C): Cells were resuspended in DMEM/F12 (Hyclone) supplemented with 1 g/L BSA and 300 μM isobutyl-methylxanthine. […] Raw data were transformed into concentration of cAMP using a standard curve then dose response curves were plotted and inflection point (IP) values were determined

Structure (SMILES) | IC50
O=C(N[C@@H]1CC[C@@H](c2cccc(F)c2F)[C@@H](F)c2cccnc21)c1cnc2c(c1)C[C@@]1(C2)C(=O)Nc2ncccc21 [Example 8C, (S)—N-((5R,6S,9R)-6-(2,3-difluorophenyl)-5-fluoro-6,7,8,9-tetrahydro-5H-cyclohepta[b]pyridin-9-yl)-2′-oxo-1′,2′,5,7-tetrahydrospiro[cyclopenta[b]pyridine-6,3′-pyrrolo[2,3-b]pyridine]-3-carboxamide] | 22 nM
O=C(N[C@H]1CC[C@H](c2cccc(F)c2F)[C@H](F)c2cccnc21)c1cnc2c(c1)C[C@@]1(C2)C(=O)Nc2ncccc21 [Example 8D, (S)—N-((5S,6R,9S)-6-(2,3-difluorophenyl)-5-fluoro-6,7,8,9-tetrahydro-5H-cyclohepta[b]pyridin-9-yl)-2′-oxo-1′,2′,5,7-tetrahydrospiro[cyclopenta[b]pyridine-6,3′-pyrrolo[2,3-b]pyridine]-3-carboxamide] | 570 nM
